SIRT5 inh: inhibitors of human sirtuin-5 desuccinylase | AID 652115 | 330,000 compounds, 1.1% hits | Purified SirT5, succinyl-peptide AMC, trypsin-coupled fluorescence | inhibition, % at 15 µM; in the data active = inhibition above about 15%
ERp5 inh: ERp5 (human) disulfide isomerase inhibition | Q15084 | inhibition, % at 9.99 µM | 350,000 compounds, 0.05% hits | ERp5 insulin aggregation, absorbance 650 nm, 90 min;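 active = mean replicate inhibition above about 25%, with every replicate also reaching it, limit read from the data, passing the limit was not always enough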
UUG fidelity: modulators of start codon recognition fidelity in yeast. S. cerevisiae UUG-firefly luciferase reporter, luminescence/redox ratio. activity score, % at 18.7 µM. 0.13% of 350,000 active. AID 602363;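 active = replicate mean at a twofold rise or more, about +100% in these data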;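 also: firefly luciferase made from a UUG start codon reports start codon fidelity; reporter light over untreated wells divided by growth signal over untreated wells; some hits fall short of that in this replicate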
FGF22 binding: binders of recombinant human FGF22 by thermal shift; activity (Tm shift, normalised), % at 9.99 µM; 340,000 compounds, 1.5% hits; AID 651658; SYPRO orange fluorescence; percent of sucrose octasulfate shift, DMSO zero; Q9HCT0;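 active = mean Tm shift, scaled 0 neutral to 100 positive control, at about 1.3% or above, every replicate too, limit read from the data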
S100A4 inh HTS: blocks human S100A4 binding to myosin IIA peptide; P26447; S100A4/TAMRA-MyoIIA peptide fluorescence polarization; 360,000 compounds, 0.14% hits; inhibition, % at 10.7 µM;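 active = mean inhibition of at least 70% across replicates, with every replicate also reaching that level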
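System – human S100A4 monomer protein, biochemical binding assay · Buffer or medium – Calcium-containing HEPES buffer, pH 7.2 · Timing – 5 min between mix addition and reading · Also added – TAMRA-labelled myosin IIA heavy-chain peptide probe, 5 nM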
PDI turbidity: blocks human protein disulfide isomerase activity | inhibition, % at 10 µM | PDI insulin aggregation turbidity, A650, 90 min | 350,000 compounds, 0.052% hits | AID 588391;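 active = mean inhibition across replicates of 30% or more, whatever share of single replicates reach that level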
An asterisk follows results filed as active; . = no result. An excerpt weighted towards active compounds, which were near 2.2% of everything screened.

1) COC(=O)C[C@@H]1CC[C@@H]2[C@H](COc3ccc(NC(=O)Nc4ccc(C)cc4)cc3C(=O)N2C)O1
2) N/C(=N\OC(=O)COc1cc(Cl)c(Cl)cc1Cl)c1ccncc1
3) COc1ccc(/C(N)=N/OC(=O)COc2ccccc2Cl)cc1
4) Cc1cccc(/C(N)=N/OC(=O)COc2ccccc2Cl)c1
5) COc1ccc2c3c([nH]c2c1)[C@@H](CO)N(Cc1ccccc1)CC31CCN(C(=O)Nc2cccc(F)c2)CC1
6) O=C(NNC(=S)NC(=O)c1cccs1)c1cccnc1
7) CCN(CC)S(=O)(=O)c1ccc(NC(=O)c2cccs2)cc1
8) O=C(NNC(=O)c1cccs1)c1ccccc1
9) CCN(CC)S(=O)(=O)c1ccc(NC(=S)NC(=O)CC(C)C)cc1
10) CC(=O)Nc1ccc(C(=O)NNC(=O)c2cccs2)cc1

Screen / compound no.	1	2	3	4	5	6	7	8	9	10
SIRT5 inh	0	1	-5	17*	1	17*	1	3	33*	-1
ERp5 inh	-21	-1	-2	3	9	-13	14	2	-5	1
UUG fidelity	7	.	-1	.	.	.	-7	.	.	.
FGF22 binding	0	43*	0	0	0	0	43*	0	0	44*
S100A4 inh HTS	-17	-5	-7	-3	-4	-18	0	2	-8	-1
PDI turbidity	.	.	6	-5	.	-1	-1	-1	-15	-6

A draw from above in order of formula weight, lowest first:
4) Cc1cccc(/C(N)=N/OC(=O)COc2ccccc2Cl)c1
3) COc1ccc(/C(N)=N/OC(=O)COc2ccccc2Cl)cc1
7) CCN(CC)S(=O)(=O)c1ccc(NC(=O)c2cccs2)cc1

Screen / compound no.	4	3	7
SIRT5 inh	17*	-5	1
ERp5 inh	3	-2	14
UUG fidelity	.	-1	-7
FGF22 binding	0	0	43*
S100A4 inh HTS	-3	-7	0
PDI turbidity	-5	6	-1

More entries.
11) COc1cccc(CNC(=O)C[C@H]2C=C[C@@H](NC(C)=O)[C@@H](CO)O2)c1
12) O=C(NNC(=O)c1cccs1)c1ccncc1
13) CN1/C(=C/C(=S)NC(=O)C2CCC2)C(C)(C)c2ccccc21
14) CN1/C(=C\C(=O)c2cccc(S(=O)(=O)N3CCCCC3)c2)C(C)(C)c2ccccc21
15) CCCNC(=O)/C=C/C(=O)O
16) O=C(O)/C=C/C(=O)NCCCc1ccccc1
17) O=C(CN1CCOCC1)N/N=C/c1ccc(-c2ccc(C(=O)O)cc2)o1
18) CC1(CC(=O)N/N=C/c2ccc(-c3ccc(C(=O)O)cc3)o2)OCCO1
19) C[C@H]1CN([C@@H](C)CO)C(=O)c2cccc(NC(=O)Nc3ccc(F)cc3)c2O[C@H]1CN(C)C(=O)Nc1ccc(C(F)(F)F)cc1
20) O=C(Nc1ccccc1C(=O)O)c1ccc2c(c1)C(=O)N(c1cccc([N+](=O)[O-])c1)C2=O

Screen / compound no.	11	12	13	14	15	16	17	18	19	20
SIRT5 inh	-4	22*	15*	0	-1	-2	17*	8	6	18*
ERp5 inh	4	5	1	6	1	-78	6	-4	10	2
UUG fidelity	-8	.	-30	-18	.	.	.	7	-11	-16
FGF22 binding	0	0	0	43*	44*	1	0	.	1	0
S100A4 inh HTS	-14	3	-64	31	2	-1	-1	-1	14	-5
PDI turbidity	.	10	0	-3	1	4	6	3	.	5

21) CN1c2ccc(Br)cc2[C@H]2[C@H](CCN2C(=O)C2CCCC2)[C@H]1CO
22) CCNC(=O)N(C)C[C@H]1N[C@@](C)(C(=O)OC)[C@H]2C(=O)N(C)C(=O)[C@@H]12
23) CCN(C[C@H]1N[C@@](C)(C(=O)OC)[C@H]2C(=O)N(C)C(=O)[C@@H]12)C(=O)c1ccc(C)cc1
24) COC(=O)[C@]1(C)N[C@H](CN(C)C(=O)c2ccccc2)[C@@H]2C(=O)N(C)C(=O)[C@@H]21
25) CCN(C[C@H]1N[C@@](C)(C(=O)OC)[C@H]2C(=O)N(C)C(=O)[C@@H]12)C(=O)c1ccc(F)cc1
26) COC(=O)[C@]1(C)N[C@H](CN(C)C(=O)c2ccc(C(C)(C)C)cc2)[C@@H]2C(=O)N(Cc3ccccc3)C(=O)[C@@H]21
27) COCC(=O)N1CC2(C1)CN(Cc1cc(F)ccc1F)[C@H](CO)c1[nH]c3cc(OC)ccc3c12
28) COc1ccc(S(=O)(=O)N2C[C@@H](O)COC[C@@H]3O[C@H](CC(=O)NCCN4CCCCC4)CC[C@H]32)cc1
29) C[C@H]1CN([C@@H](C)CO)C(=O)c2cc(C#CCN(C)C)cnc2O[C@H]1CN(C)C(=O)c1ccc2c(c1)OCO2
30) CCCC(=O)Nc1ccc2c(c1)C(=O)N(C)[C@@H]1CC[C@@H](CC(=O)Nc3cn(C)nc3C)O[C@@H]1CO2

Screen / compound no.	21	22	23	24	25	26	27	28	29	30
SIRT5 inh	-2	-6	0	34*	28*	.	2	.	-2	-5
ERp5 inh	9	-3	3	-1	-5	3	-7	.	15	5
UUG fidelity	.	-2	-12	-1	-8	3	.	.	21	-9
FGF22 binding	.	0	0	0	0	43*	0	0	0	0
S100A4 inh HTS	11	-2	-1	1	-2	-11	17	.	-4	-2
PDI turbidity	.	-10	3	-10	9	-4	.	.	.	.

31) C[C@@H]1CN([C@H](C)CO)S(=O)(=O)c2ccc(-c3ccc(F)cc3)cc2O[C@H]1CN(C)C
32) COC(=O)Nc1ccc(Cn2cc(C(F)(F)F)ccc2=O)cc1
33) Cc1cc(C=O)c(C)n1-c1cc(C(=O)O)cc(C(=O)O)c1
34) Cc1ccc(NS(=O)(=O)c2ccc(C(=O)N3CCN(c4ccccn4)CC3)cc2)cc1
35) COc1ccccc1NS(=O)(=O)c1ccc(C(=O)N2CCN(c3ccccn3)CC2)cc1
36) CCc1cnc(N2[C@H](CO)[C@@H](c3ccc(C#CCC4CCCC4)cc3)[C@@H]2C#N)s1
37) CCCC#Cc1ccc2c(c1)O[C@@H](CN(C)C(=O)c1ccccn1)[C@H](C)CN([C@H](C)CO)S2(=O)=O
38) Cc1ccc(C)c(NC(=O)COC(=O)CC2CC3CCC2C3)c1 (stereo not drawn)
39) Cc1cc(Br)c(NC(=O)COC(=O)CC2CC3CCC2C3)c(Br)c1 (stereo not drawn)
40) Cn1cc(-c2ccc(Cl)cc2)cc(C#N)c1=O

Screen / compound no.	31	32	33	34	35	36	37	38	39	40
SIRT5 inh	-3	17*	20*	.	-3	1	-1	-2	19*	-6
ERp5 inh	-1	1	-2	.	27*	4	-9	0	-2	5
UUG fidelity	-17	.	.	4	7	.	6	.	-12	.
FGF22 binding	0	0	0	.	1	0	0	0	0	43*
S100A4 inh HTS	-19	1	-2	.	0	.	27	5	4	8
PDI turbidity	.	-5	-5	12	-5	.	.	-2	5	-7

41) O=C(C[C@H]1CC[C@@H]2[C@H](COC[C@H](O)CN2Cc2nccs2)O1)NCc1ccccc1
42) O=C(CCc1nnc(CCCCc2ccccc2)o1)NCCCc1cccnc1
43) O=C(CCc1nnc(CCCc2ccccc2)o1)NCCc1ccccc1
44) O=C(CCc1nnc(CCCc2ccccc2)o1)NCCCC1CCCC1
45) O=C(CCc1nnc(CCCCc2ccccc2)o1)NCCn1cccn1
46) Cc1c(NS(=O)(=O)c2cccc(C(=O)Nc3ccccc3)c2)c(=O)n(-c2ccccc2)n1C

Screen / compound no.	41	42	43	44	45	46
SIRT5 inh	-2	-3	-4	-3	0	1
ERp5 inh	0	-2	4	2	1	4
UUG fidelity	.	.	.	.	.	-9
FGF22 binding	0	0	0	43*	43*	0
S100A4 inh HTS	-2	4	-2	4	-3	2
PDI turbidity	.	5	4	-5	14	-5
